The experiment concerns the target T1, HLA-DPB1*0402 (Homo sapiens, UniProt P04440+P20036, A65V/A84D/A85E/L207M).
T1 sequence (P04440 30-258 A65V/A84D/A85E): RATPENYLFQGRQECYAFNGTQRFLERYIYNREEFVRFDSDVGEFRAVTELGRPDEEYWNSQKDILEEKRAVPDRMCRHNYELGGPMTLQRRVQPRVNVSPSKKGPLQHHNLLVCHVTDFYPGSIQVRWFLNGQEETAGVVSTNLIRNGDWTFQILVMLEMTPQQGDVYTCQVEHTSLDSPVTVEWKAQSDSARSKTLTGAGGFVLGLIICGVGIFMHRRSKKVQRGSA
T1 sequence (P20036 29-260): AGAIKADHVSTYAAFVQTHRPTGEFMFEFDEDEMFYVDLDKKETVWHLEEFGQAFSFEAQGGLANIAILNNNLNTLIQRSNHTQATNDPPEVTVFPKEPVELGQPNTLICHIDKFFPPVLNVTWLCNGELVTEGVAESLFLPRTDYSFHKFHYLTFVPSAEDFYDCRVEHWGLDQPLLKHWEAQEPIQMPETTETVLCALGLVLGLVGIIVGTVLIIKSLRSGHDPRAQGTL
The experiment can be described thus: biochemical. The format is binding.

Data on one compound can be found in article PMC2935290 (Journal of immunology (Baltimore, Md. : 1950), 2010).

Broadly, the IC50 is the midpoint of a concentration-inhibition curve. Low readings indicate higher potency, high ones lower potency. In turn, `CC[C@H](C)[C@H](NC(=O)[C@@H](NC(=O)[C@H](CO)NC(=O)CNC(=O)[C@H](Cc1ccc(O)cc1)NC(=O)[C@H](CC(N)=O)NC(=O)[C@@H](N)CC(N)=O)[C@@H](C)O)C(=O)N[C@@H](CCC(=O)O)C(=O)NCC(=O)N[C@@H](CC(C)C)C(=O)N[C@@H](CC(C)C)C(=O)N[C@@H](CC(=O)O)C(=O)O` had an IC50 of 5.87 µM.
